Laboratory results: paper PMC3944532, “Mode of Action of Diterpene and Characterization of Related Metabolites from the Soft Coral, Xenia elongata” (Marine Drugs, 2014)

Sequences of proteins named here, by UniProt entry; tags and fusion partners are left off. A change or cut given only in a name is not applied to a line headed by its entry.
UniProt P56524: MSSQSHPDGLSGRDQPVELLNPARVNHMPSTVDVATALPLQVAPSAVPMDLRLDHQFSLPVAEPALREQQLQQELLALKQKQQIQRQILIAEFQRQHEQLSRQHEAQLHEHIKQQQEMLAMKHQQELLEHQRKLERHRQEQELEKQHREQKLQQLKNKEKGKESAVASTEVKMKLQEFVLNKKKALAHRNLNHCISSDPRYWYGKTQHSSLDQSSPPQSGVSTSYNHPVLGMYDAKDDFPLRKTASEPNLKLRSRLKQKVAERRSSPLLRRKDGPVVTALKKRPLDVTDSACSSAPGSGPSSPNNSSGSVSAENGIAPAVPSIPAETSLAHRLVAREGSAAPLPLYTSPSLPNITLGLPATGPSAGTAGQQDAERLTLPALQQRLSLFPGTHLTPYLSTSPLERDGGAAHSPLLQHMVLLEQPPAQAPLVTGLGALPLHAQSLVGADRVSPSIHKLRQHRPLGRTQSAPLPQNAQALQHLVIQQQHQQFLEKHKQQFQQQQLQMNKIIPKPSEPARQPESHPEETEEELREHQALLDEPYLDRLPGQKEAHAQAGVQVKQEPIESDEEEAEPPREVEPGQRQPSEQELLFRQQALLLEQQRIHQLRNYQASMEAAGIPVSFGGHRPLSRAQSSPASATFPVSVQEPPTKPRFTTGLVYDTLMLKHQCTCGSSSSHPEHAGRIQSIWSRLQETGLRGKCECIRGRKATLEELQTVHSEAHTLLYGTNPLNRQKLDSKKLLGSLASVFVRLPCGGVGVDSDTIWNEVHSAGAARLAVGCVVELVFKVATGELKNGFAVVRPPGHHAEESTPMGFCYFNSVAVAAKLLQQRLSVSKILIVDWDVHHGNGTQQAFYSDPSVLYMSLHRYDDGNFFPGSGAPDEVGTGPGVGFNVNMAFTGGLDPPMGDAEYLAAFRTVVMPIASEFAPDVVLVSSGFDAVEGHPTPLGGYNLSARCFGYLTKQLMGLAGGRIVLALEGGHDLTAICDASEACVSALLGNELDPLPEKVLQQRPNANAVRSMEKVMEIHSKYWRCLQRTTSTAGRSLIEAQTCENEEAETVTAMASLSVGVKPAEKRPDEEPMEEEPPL
UniProt Q92769, whole entry: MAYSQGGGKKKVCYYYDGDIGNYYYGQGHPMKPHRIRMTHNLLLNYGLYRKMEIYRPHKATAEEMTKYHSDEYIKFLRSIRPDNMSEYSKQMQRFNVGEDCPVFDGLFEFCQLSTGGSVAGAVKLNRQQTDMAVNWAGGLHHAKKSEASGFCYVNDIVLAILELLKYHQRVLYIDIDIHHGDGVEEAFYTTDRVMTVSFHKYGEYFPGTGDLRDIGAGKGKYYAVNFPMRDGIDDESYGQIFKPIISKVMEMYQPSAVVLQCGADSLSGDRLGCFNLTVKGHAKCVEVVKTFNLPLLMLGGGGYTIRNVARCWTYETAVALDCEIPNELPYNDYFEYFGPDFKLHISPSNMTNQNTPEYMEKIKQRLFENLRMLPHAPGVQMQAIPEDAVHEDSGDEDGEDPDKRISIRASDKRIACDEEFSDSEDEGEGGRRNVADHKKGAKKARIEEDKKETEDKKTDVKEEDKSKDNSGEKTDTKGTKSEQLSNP
UniProt Q13547, whole entry: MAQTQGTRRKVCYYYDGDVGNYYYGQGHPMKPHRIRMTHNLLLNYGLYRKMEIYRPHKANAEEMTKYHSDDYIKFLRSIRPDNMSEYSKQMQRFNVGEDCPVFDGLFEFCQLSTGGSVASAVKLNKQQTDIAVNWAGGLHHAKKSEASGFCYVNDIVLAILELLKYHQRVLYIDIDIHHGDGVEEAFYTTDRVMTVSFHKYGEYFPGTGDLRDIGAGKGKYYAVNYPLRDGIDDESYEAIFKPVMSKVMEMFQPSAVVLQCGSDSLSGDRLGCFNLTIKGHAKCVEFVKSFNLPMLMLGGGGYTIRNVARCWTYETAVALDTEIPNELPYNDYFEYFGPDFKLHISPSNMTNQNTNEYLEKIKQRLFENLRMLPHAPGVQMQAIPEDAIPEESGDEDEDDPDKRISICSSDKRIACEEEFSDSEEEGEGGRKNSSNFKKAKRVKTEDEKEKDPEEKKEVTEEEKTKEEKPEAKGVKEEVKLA
UniProt Q9UQL6: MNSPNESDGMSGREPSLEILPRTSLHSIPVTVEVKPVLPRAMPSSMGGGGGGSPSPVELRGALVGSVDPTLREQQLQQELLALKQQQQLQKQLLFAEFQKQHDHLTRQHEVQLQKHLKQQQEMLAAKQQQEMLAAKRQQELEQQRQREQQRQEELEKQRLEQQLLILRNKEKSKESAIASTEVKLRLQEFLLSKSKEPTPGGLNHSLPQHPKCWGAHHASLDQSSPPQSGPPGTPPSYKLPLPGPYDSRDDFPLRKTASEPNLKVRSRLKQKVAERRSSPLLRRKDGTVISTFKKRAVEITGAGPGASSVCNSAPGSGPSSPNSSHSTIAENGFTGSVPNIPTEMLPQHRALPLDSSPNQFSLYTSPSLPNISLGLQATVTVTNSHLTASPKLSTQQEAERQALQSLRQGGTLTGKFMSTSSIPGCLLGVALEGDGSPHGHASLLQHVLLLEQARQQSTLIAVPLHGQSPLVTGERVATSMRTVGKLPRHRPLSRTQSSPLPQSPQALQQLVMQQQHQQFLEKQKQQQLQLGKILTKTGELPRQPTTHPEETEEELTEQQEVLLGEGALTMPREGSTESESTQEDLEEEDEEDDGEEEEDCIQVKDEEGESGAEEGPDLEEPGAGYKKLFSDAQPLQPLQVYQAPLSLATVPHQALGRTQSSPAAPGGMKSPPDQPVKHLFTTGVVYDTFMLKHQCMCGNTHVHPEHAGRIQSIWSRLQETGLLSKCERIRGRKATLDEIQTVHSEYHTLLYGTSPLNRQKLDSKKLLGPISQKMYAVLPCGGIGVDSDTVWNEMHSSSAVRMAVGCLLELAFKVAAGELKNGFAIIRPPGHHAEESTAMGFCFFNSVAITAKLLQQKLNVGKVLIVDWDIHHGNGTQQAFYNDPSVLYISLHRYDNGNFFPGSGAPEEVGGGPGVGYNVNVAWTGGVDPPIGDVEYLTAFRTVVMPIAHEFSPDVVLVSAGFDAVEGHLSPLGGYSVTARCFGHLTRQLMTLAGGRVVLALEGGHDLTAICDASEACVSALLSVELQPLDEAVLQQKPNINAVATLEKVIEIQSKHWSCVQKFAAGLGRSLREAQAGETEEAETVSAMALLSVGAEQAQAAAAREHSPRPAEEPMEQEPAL
UniProt Q9UKV0: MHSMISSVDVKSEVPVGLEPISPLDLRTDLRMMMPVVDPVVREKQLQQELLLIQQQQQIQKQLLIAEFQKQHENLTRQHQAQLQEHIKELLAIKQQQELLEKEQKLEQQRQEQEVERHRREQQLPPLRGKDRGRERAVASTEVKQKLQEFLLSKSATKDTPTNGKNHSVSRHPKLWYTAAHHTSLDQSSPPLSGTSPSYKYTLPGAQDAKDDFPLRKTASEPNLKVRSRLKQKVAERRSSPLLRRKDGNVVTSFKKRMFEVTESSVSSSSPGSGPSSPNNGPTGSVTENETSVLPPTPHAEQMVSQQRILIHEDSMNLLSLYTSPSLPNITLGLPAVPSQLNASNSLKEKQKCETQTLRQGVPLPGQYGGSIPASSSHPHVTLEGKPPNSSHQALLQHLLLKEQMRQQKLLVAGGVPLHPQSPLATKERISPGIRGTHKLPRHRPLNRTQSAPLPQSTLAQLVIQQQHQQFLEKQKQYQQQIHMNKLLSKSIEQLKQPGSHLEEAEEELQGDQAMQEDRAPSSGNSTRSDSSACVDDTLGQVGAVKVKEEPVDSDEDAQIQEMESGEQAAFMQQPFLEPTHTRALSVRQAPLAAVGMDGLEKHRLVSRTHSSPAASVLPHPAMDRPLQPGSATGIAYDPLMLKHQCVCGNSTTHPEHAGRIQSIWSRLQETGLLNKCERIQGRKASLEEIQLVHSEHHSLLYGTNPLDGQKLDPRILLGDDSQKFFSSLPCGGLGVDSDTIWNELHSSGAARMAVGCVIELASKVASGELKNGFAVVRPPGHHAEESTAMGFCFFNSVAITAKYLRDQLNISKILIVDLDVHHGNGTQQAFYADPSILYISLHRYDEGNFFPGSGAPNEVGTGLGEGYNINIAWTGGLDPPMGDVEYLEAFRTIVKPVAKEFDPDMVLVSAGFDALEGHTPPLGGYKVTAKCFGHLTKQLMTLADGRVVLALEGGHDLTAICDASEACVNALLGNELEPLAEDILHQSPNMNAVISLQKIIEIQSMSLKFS

Key:
HDAC4 = HDAC4 (Homo sapiens, UniProt P56524); experiment: HDAC inhibition assay, class II A, fluorogenic HDAC Class2a substrate
HDAC2 = HDAC2 (Homo sapiens, UniProt Q92769); experiment: HDAC inhibition assay, class I, fluorogenic peptide RHKK(Ac)AMC; format: biochemical
HDAC8 = biological target: T1, HDAC8 (Homo sapiens, UniProt Q9BY41); experiment: HDAC inhibition assay, class I, fluorogenic peptide RHK(Ac)K(Ac)AMC; format: biochemical
T1 sequence (Q9BY41 1-377): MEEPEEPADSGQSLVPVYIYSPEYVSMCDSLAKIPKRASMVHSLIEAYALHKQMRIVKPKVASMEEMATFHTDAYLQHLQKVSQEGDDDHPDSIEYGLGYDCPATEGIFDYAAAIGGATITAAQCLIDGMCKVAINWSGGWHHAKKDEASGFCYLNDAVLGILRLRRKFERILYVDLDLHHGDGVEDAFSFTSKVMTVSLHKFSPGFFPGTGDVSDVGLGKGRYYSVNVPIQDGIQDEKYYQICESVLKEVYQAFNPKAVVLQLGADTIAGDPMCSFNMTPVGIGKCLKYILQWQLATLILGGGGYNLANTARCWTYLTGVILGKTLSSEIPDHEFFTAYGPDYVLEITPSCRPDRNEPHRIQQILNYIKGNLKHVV

HDAC1 = HDAC1 (Homo sapiens, UniProt Q13547); experiment: HDAC inhibition assay, class I, fluorogenic peptide RHKK(Ac)AMC; format: biochemical
HDAC5 = HDAC5 (Homo sapiens, UniProt Q9UQL6); experiment: HDAC inhibition assay, class II A, fluorogenic HDAC Class2a substrate
HDAC9 = HDAC9 (Homo sapiens, UniProt Q9UKV0); experiment: as above

CC(/C=C/C(=O)NO)=C\[C@@H](C)C(=O)c1ccc(N(C)C)cc1 [Trichostatin A]
%Activity (HDAC4; 1.00E-05 M): 38.73%
%Activity (HDAC4; 1.11E-06 M): 96.69%
%Activity (HDAC4; 1.23E-07 M): 104.67%
%Activity (HDAC4; 1.37E-08 M): 103.45%
%Activity (HDAC4; 1.52E-09 M): 114.32%
%Activity (HDAC4; 3.33E-06 M): 66.93%
%Activity (HDAC4; 4.12E-08 M): 107.27%
%Activity (HDAC4; 4.57E-09 M): 111.57%
%Activity (HDAC4; 5.08E-10 M): 111.20%
%Activity (HDAC2; 1.00E-05 M): −3.68%
%Activity (HDAC2; 1.11E-06 M): 0.92%
%Activity (HDAC2; 1.23E-07 M): 27.55%
%Activity (HDAC2; 1.37E-08 M): 70.86%
%Activity (HDAC2; 1.52E-09 M): 94.80%
%Activity (HDAC2; 3.33E-06 M): −2.06%
%Activity (HDAC2; 3.70E-07 M): 7.43%
%Activity (HDAC2; 4.12E-08 M): 41.34%
%Activity (HDAC2; 4.57E-09 M): 78.05%
%Activity (HDAC2; 5.08E-10 M): 84.26%
HILLSLOPE (HDAC2; curve fit): -1.029
%Activity (HDAC8; 1.00E-05 M): 1.00%
%Activity (HDAC8; 1.11E-06 M): 39.71%
%Activity (HDAC8; 1.23E-07 M): 25.34%
%Activity (HDAC8; 1.37E-08 M): 113.46%
%Activity (HDAC8; 1.52E-09 M): 106.69%
%Activity (HDAC8; 3.33E-06 M): 18.40%
%Activity (HDAC8; 3.70E-07 M): 55.93%
%Activity (HDAC8; 4.12E-08 M): 106.11%
%Activity (HDAC8; 4.57E-09 M): 100.99%
%Activity (HDAC8; 5.08E-10 M): 97.81%
%Activity (HDAC1; 1.00E-05 M): −1.79%
%Activity (HDAC1; 1.11E-06 M): 9.76%
%Activity (HDAC1; 1.23E-07 M): 13.39%
%Activity (HDAC1; 1.37E-08 M): 57.30%
%Activity (HDAC1; 1.52E-09 M): 89.46%
%Activity (HDAC1; 3.33E-06 M): −0.77%
%Activity (HDAC1; 3.70E-07 M): 4.96%
%Activity (HDAC1; 4.12E-08 M): 33.43%
%Activity (HDAC1; 4.57E-09 M): 75.41%
%Activity (HDAC1; 5.08E-10 M): 94.78%
HILLSLOPE (HDAC1; curve fit): −0.8597

O=C(NCC1(c2nc(-c3ccccc3)cs2)CCOCC1)c1cccc(-c2noc(C(F)(F)F)n2)c1 [TMP269]
%Activity (HDAC5; 1.00E-05 M): 2.95%
%Activity (HDAC5; 1.11E-06 M): 17.13%
%Activity (HDAC5; 1.23E-07 M): 73.56%
%Activity (HDAC5; 1.37E-08 M): 101.76%
%Activity (HDAC5; 1.52E-09 M): 105.35%
%Activity (HDAC5; 3.33E-06 M): 4.93%
%Activity (HDAC5; 3.70E-07 M): 44.58%
%Activity (HDAC5; 4.12E-08 M): 91.82%
%Activity (HDAC5; 4.57E-09 M): 106.69%
%Activity (HDAC5; 5.08E-10 M): 112.07%
HILLSLOPE (HDAC5; curve fit): −1.023
%Activity (HDAC9; 1.00E-05 M): −0.05%
%Activity (HDAC9; 1.11E-06 M): 2.96%
%Activity (HDAC9; 1.23E-07 M): 14.71%
%Activity (HDAC9; 1.37E-08 M): 68.95%
%Activity (HDAC9; 1.52E-09 M): 103.85%
%Activity (HDAC9; 3.33E-06 M): 0.58%
%Activity (HDAC9; 3.70E-07 M): 5.79%
%Activity (HDAC9; 4.12E-08 M): 41.39%
%Activity (HDAC9; 4.57E-09 M): 91.40%
%Activity (HDAC9; 5.08E-10 M): 106.05%
HILLSLOPE (HDAC9; curve fit): −1.036
